Biological target: Human VPS34 (Homo sapiens (Human), UniProt Q8NEB9)
Assay: Human VPS34 enzyme assay (Adapta TR-FRET)
Type: biochemical
Settings: read-out: Percent Inhibition

The chains behind the UniProt entries cited, without tags or fusion partners.
UniProt Q8NEB9, whole entry: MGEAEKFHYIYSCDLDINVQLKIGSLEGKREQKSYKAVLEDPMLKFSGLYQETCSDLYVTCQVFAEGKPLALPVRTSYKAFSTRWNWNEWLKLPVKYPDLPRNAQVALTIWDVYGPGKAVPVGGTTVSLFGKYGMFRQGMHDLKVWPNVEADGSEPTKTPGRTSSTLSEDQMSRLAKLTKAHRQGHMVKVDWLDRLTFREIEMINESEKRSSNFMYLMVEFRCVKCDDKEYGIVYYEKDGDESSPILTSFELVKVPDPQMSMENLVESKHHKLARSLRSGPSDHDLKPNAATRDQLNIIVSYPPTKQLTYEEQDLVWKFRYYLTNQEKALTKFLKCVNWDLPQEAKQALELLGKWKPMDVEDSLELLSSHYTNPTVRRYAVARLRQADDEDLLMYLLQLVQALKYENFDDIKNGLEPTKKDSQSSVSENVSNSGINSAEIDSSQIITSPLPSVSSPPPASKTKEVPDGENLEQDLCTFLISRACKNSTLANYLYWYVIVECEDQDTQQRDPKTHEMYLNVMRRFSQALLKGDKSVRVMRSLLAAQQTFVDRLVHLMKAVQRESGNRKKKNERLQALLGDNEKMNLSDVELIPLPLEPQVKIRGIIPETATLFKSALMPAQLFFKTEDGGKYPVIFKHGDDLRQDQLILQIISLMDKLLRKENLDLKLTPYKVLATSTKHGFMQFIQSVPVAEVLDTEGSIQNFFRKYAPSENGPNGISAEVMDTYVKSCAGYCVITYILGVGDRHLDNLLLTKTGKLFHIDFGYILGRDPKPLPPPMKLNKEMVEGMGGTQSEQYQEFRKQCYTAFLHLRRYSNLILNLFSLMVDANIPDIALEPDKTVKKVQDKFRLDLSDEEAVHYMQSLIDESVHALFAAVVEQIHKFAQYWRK

## Cc1nccc(Nc2cc(-c3cc(NS(=O)(=O)N(C)C)c4ccnn4c3)ccn2)n1 [Compound I-421, N,N-dimethyl-N′-(6-{2-[(2-methylpyrimidin-4-yl)amino]pyridin-4-yl}pyrazolo[1,5-a]pyridin-4-yl)sulfuric diamide]
  inhibition at 1.11 µM: 90%

Source: patent US9802960B2 (MILLENNIUM PHARMACEUTICALS, INC., priority 2014, dated 2017)
